Our source for the bioavailability values is patent publication EP2060268A1, “Pharmaceutical compositions for pulmonary or nasal delivery of peptides” (NOVO NORDISK A/S, priority 2007, dated 2009).

SMILES strings stand for the structures.

This series is described as follows: Pharmacokinetics after intra-tracheal dry powder delivery to anaesthetised pigs. Type of series: in vivo. The settings on record: pig, inhaled or intranasal, pramlintide/insulin aspart powder delivered intra-tracheally, plasma, read-out: Absolute bioavailability. How it is done: For pulmonary delivery the PennCentury™ DP-4 dry powder insufflator (Penn-Century Inc) modified for pigs was used in combination with the PennCentury™ adjustable air pump, model AP-1 (Penn-Century Inc). The powder is weighed into the sample chamber of the device and manually emitted from the device by using the AP-1 adjustable pump.
The pigs were fasted for approximately 18 h before the experiment. Anaesthesia was induced by injecting Domitor IV (1 mg/mL, 0.4 mL/pig), followed by slow IV infusion of Propofol (10 mg/ml) until the sufficient depth of anaesthesia was obtained, approximately 10-15 mL/pig in total. Atropin (1 mg/ml, 0.5 mL/pig) was injected i.m. to stabilize cardiac parameters and to decrease bronchial secretions. After anaesthesia (and) the pigs were intubated with an endotracheal tube size 8.0 mm. Via an L-piece and the endotraceal tube the pigs were connected to a respirator, with respiration frequency set to 10/min and tidal volume to 300 mL/breath to mimic deep inhalations in humans. […]
Insulin aspart was analyzed using an in-house LOCI sandwich immunoassay with two different antibodies. […] Pramlintide was analyzed using a commercially available human amylin ELISA kit modified for porcine samples (Linco Research, cat. no. EZHA-52K). […]

Regarding `CC[C@H](C)[C@H](NC(=O)[C@@H]1CCCN1C(=O)CNC(=O)[C@H](Cc1ccccc1)NC(=O)[C@H](CC(N)=O)NC(=O)[C@H](CC(N)=O)NC(=O)[C@H](CO)NC(=O)[C@H](CO)NC(=O)[C@H](Cc1c[nH]cn1)NC(=O)[C@@H](NC(=O)[C@H](CC(C)C)NC(=O)[C@H](Cc1ccccc1)NC(=O)[C@H](CC(N)=O)NC(=O)[C@H](C)NC(=O)[C@H](CC(C)C)NC(=O)[C@H](CCCNC(=N)N)NC(=O)[C@H](CCC(N)=O)NC(=O)[C@@H](NC(=O)[C@H](C)NC(=O)[C@@H]1CSSC[C@H](NC(=O)[C@@H](N)CCCCN)C(=O)N[C@@H](CC(N)=O)C(=O)N[C@@H]([C@@H](C)O)C(=O)N[C@@H](C)C(=O)N[C@@H]([C@@H](C)O)C(=O)N1)[C@@H](C)O)C(C)C)C(=O)N[C@@H](CC(C)C)C(=O)N1CCC[C@H]1C(=O)N1CCC[C@H]1C(=O)N[C@H](C(=O)N[C@@H](CC(N)=O)C(=O)N[C@H](C(=O)NCC(=O)N[C@@H](CO)C(=O)N[C@@H](CC(N)=O)C(=O)N[C@H](C(=O)N[C@@H](Cc1ccc(O)cc1)C(N)=O)[C@@H](C)O)C(C)C)[C@@H](C)O` [Symlin, ^25,28,29Pro-h-amylin], the bioavailability came to 5.1 ± 3.1%.
